Laboratory results published in article PMC7278359, “Small molecule AX-024 reduces T cell proliferation independently of CD3ϵ/Nck1 interaction, which is governed by a domain swap in the Nck1-SH3.1 domain” (The Journal of Biological Chemistry, 2020).

How the values were obtained:
monomeric Nck1-SH3.1 = assay: Ligand-observed NMR with monomeric Nck1-SH3.1; format: binding, human; settings: 50 μM ligand, 10 μM monomeric Nck1-SH3.1 (residues 1–61), pH 6.5, 150 mM NaCl, 27 °C
Description: (§1) NMR spectra were recorded on a Bruker 600-MHz Avance NEO spectrometer equipped with a cryogenic QCI probe head at 27 °C in 25 mM […], 150 mM NaCl. The Topspin 4.0 software (Bruker, Fällanden) was used for spectrometer operation and data processing. For ^1H ligand-observed measurements, a relaxation filtered pulse sequence utilizing a spinlock of 50 ms was applied. 1D spectra were acquired with 128 scans, a sweep width of 26 ppm, and an acquisition time of 2 s. 2D ^1H-^15N HSQC spectra with natural ^15N isotope abundance were recorded over 72 h with a spectral width of 16 ppm and 35 ppm in the proton and nitrogen dimensions, respectively, with 256 increments (complex) and 1000 scans per increment. A relaxation delay of 1 s was used between scans. For the DOSY measurements (reviewed in Ref. [51]), the Bruker pulse sequence ledbpgp2s with a diffusion delay of 50 ms and a gradient length of 600 μs was used. The gradient strength was varied from 5 to 95% to record 16 increments of 512 scans with a sweep width of 18 ppm and a relaxation delay of 1 s.
(§2) Samples for ligand-observed measurements were prepared in 25 mM sodium phosphate buffer, pH 6.5, 150 mM NaCl. One sample contained 50 μM AX-024, and the other contained 50 μM CD3ϵ peptide.

dimeric Nck1-SH3.1 = assay: Ligand-observed NMR with dimeric Nck1-SH3.1; format: binding, human; settings: 50 μM ligand, 10 μM dimeric Nck1-SH3.1 (residues 1–61), pH 6.5, 150 mM NaCl, 27 °C
Description: as §1, §2

CC(C)[C@H](NC(=O)[C@@H]1CCCN1C(=O)[C@@H]1CCCN1C(=O)[C@@H]1CCCN1C(=O)[C@H](CCCNC(=N)N)NC(=O)[C@H](CCC(=O)O)NC(=O)[C@H](CCCCN)NC(=O)[C@H](CC(N)=O)NC(=O)[C@H](CCC(N)=O)NC(=O)CNC(=O)[C@@H](N)CCCNC(=N)N)C(=O)N1CCC[C@H]1C(=O)N[C@@H](CC(N)=O)C(=O)N1CCC[C@H]1C(=O)N[C@@H](CC(=O)O)C(=O)N[C@@H](Cc1ccc(O)cc1)C(N)=O
ligand-observed NMR, spectral change / line broadening (monomeric Nck1-SH3.1): strong line broadening | ligand-observed NMR, spectral change / line broadening (monomeric Nck1-SH3.1; listed as CD3ϵ peptide): significant line broadening | ligand-observed NMR, spectral change / line broadening (dimeric Nck1-SH3.1): much less line broadening | ligand-observed NMR, spectral change / line broadening (dimeric Nck1-SH3.1; listed as CD3ϵ peptide): much smaller line broadening
